One substance from patent publication US6602853B1, “Antigenic peptides reacting with anti-ovary antibodies” (Bio Merieux, priority 1996, dated 2003) can be followed below.

For experiment [1], the system named is anti-ovary antibodies. Description: Recognition by serums containing anti-ovary antibodies. The format is binding.
Experiment [2] deals with anti-β-FSH monoclonal antibodies 22A3G7; 5H3E8. The experiment can be described thus: Recognition by anti-β-FSH monoclonal antibodies 22A3G7 and 5H3E8. The format is binding. The following applies: antibodies immunoreactive with metrodine and ovarian extracts.
The subject of experiment [3] is anti-β-FSH monoclonal antibody 7G5A1. The experiment can be described thus: Reaction with anti-β-FSH monoclonal antibody 7G5A1. The format is binding. The following applies: antibody only recognizing metrodine.
Experiment [4] deals with anti-ovary antibodies (AOA). Description: ELISA on 30 patient sera: correlation of serum reactivity toward crude ovarian antigen and toward each peptide (Example 2). The format is binding, human. As to conditions: 30 sera from patients, compared among antigens. How it is done:
The concentration of molecules to be adsorbed was determined by checkerboard experiments for each antigen. It is about 1 μg per well.
The binding of the antigens to the solid phase is performed in one night at +4° C. in the amount of 100 μl per well of the solution of antigen in carbonate-bicarbonate buffer. The plate is emptied. The sites of the solid phase still unoccupied are saturated on incubation for one hour at 37° C. with 200 μl per well of 5% powdered milk reconstituted in PBS.
The samples to be tested are diluted in PBS to which 0.5% BSA and 0.2% Tween 20 have been added: dilution to 1/50 for the search for anti-ovary and anti-corpus luteum antibodies. The plate is emptied and washed 3 times in PBS. The samples are distributed in the amount of 100 μl per well. The plate is incubated for 45 minutes at 37° C.
The anti-isotypes are diluted in the same solution that was used for the dilution of the samples:
The plate is again emptied and washed 3 times in PBS. Then the anti-isotypes are distributed in the amount of 100 μl per well. […]
After 3 further washings of the plate, 100 μl of developer solution are distributed into each well. […] The plate is read on the spectrophotometer at 492 nm using the Multiskan II reader.
The results are firstly expressed as optical density (O.D.) then calculated as ratios relative to a control sample at the limit of positivity. […]

Turning to “FSH: follicle stimulating hormone (FSH or gonadotrophin A); FSH (Metrodine®, Serono)”, in experiment [1], the “recognition by serums containing anti-ovary antibodies” value is given as “recognized”. The “recognition by anti-β-FSH monoclonal antibodies 22A3G7; 5H3E8” value in experiment [2] was “recognized”. In addition, the “reaction with anti-β-FSH monoclonal antibody 7G5A1” value in experiment [3] is listed as “recognizing”. The “correlation between reactivity of sera toward ovarian antigen and toward the antigen tested, in words” value in experiment [4] is “same results as those obtained for the peptide SEQ ID No.1”.
